Test results: patent US9901560B2, “Methods and compositions for treatment of acute lung injury” (dated 2018)

Tested on: chlorine-induced ALI
Assay: Chlorine gas-induced ALI model in ventilated pigs
Settings: compared with vehicle-treated pigs, average 12-24 hours post exposure

CC(=N)NCCSCC[C@H](N)C(=O)O
decrease in the Alveolar-arterial (A-a) O2 gradient (200 mg intramuscular 1 hour after 240 ppm chlorine for 1 hour, FIG. 1): 55% | increase in ratio of arterial oxygen partial pressure to fractional inspired oxygen (PaO2/FiO2 ratio) (200 mg intramuscular 1 hour after chlorine, FIG. 2): 41% | decrease in Oxygenation index (200 mg intramuscular 1 hour after chlorine, FIG. 3): 60% | decrease in Airway Resistance (200 mg intramuscular 1 hour after chlorine, FIG. 4): 69% | decrease in Peak Inspiratory Pressures (200 mg intramuscular 1 hour after chlorine, FIG. 5): 42% | increase in Lung Dynamic Compliance (200 mg intramuscular 1 hour after chlorine, FIG. 6): 33% | decrease in O2 Saturation drop (200 mg intramuscular 1 hour after chlorine, FIG. 7): 49% | decrease in Mean Airway Pressure (200 mg intramuscular 1 hour after chlorine, FIG. 8): 57%
